From patent US11970474B2, “Substituted benzodiazoles and use thereof in therapy” (THOMAS HELLEDAYS STIFTELSE FÖR MEDICINSK FORSKNING, priority 2018, dated 2024)

Chains of the proteins cited; added tags and fusions are not shown.
UniProt O15527, whole entry: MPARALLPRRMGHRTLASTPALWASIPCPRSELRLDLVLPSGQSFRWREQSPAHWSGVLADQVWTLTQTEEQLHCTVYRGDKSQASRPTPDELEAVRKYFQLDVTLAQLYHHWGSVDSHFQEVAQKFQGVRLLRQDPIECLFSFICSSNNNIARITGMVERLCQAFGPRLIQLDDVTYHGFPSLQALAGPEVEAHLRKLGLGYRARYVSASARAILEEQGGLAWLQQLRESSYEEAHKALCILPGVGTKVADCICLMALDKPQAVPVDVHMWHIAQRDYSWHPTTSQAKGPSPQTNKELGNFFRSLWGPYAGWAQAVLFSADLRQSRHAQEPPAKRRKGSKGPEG

Key:
[1] = molecular target: OGG1 (Homo sapiens (Human), UniProt O15527); test: In vitro OGG1 activity assay; type: biochemical; settings: 800 pM OGG1 enzyme, 2 nM human APEX1, 10 nM 8-oxoA:C substrate
[2] = test system: MLE12 cells; test: Cell viability assay in MLE12 cells (resazurin); settings: read-out: Cell Viability (IC50), TNF-α 20 ng/ml, resazurin added after 24 hours culture
[3] = test system: CCL2; test: Mouse CCL2 assay in MLE12 cells; settings: read-out: CCL2 (EC50), TNF-α 20 ng/ml, supernatant after 30 hours, HTRF

SMILES | IC50 [1] [nM] | IC50 [2] [µM] | EC50 [3] [µM]
COc1cc(NC(=O)[C@H]2CC[C@@H](n3c(=O)[nH]c4c(C(=O)N5CCC(N(C)C)CC5)cccc43)CC2)ccc1C (relative stereo) | 140 | 17.3 | 31.2
COc1cc(NC(=O)[C@H]2CC[C@@H](n3c(=O)[nH]c4c(C(=O)NCCC(N)=O)cccc43)CC2)ccc1C (relative stereo) | 5.77 |  | 
